The numbers were not newly measured in PMC9138102, “The Role of ZIP9 and Androgen Receptor in the Establishment of Tight Junctions between Adult Rat Sertoli Cells” (Biology, 2022), which cites them from elsewhere.

For the series the following is noted: cited from earlier work.

Take “testosterone 3-(O-carboxymethyl)-oxime:bovine serum albumin-fluorescein isothiocyanate conjugate [T-BSA-FITC]”: the Plasma membrane permeability result is listed as “plasma membrane-impermeable”.
